From patent US20110294728A1, “Antiviral Polypeptides” (priority 2008, published 2011)

Conditions: 200 μg, 6 hrs after injection

polyinosinic:polycytidylic acid [Poly I:C]
increase of the level of cytokines: 10 fold
